The values below are quoted from earlier work in US20090069334A1, “Pyridazine based alpha-helix mimetics” (The Scripps Research Institute, priority 2007, published 2009).

The chains behind the UniProt entries cited, without tags or fusion partners.
UniProt Q07817, whole entry, species assumed: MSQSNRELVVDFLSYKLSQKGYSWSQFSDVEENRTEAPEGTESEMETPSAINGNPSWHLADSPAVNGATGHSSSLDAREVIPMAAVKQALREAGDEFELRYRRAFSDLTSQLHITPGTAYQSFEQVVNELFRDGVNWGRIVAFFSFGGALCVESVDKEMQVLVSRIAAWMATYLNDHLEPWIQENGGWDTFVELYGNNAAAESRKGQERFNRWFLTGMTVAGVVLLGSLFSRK

By Kd is commonly meant the free concentration of one partner at which half of the binding sites on the other are occupied at equilibrium, for simple one-to-one binding.

The data set concerns the target Bcl-xL (Homo sapiens, UniProt Q07817). The following applies: 16 residue BH3 domain peptide from Bak (aa 72 to 87) bound to Bcl-xL.

Regarding “16 residue BH3 domain peptide from Bak: 16 residue BH3 domain peptide from Bak (aa 72 to 87) that binds in helical conformation to Bcl-xL”, the Kd was about 0.3 µM.
